# Measured values as given in PubChem BioAssay (EPA / NIEHS).
# By UniProt entry, the sequences of proteins in these tests, tags left out.
# UniProt P04637, whole entry: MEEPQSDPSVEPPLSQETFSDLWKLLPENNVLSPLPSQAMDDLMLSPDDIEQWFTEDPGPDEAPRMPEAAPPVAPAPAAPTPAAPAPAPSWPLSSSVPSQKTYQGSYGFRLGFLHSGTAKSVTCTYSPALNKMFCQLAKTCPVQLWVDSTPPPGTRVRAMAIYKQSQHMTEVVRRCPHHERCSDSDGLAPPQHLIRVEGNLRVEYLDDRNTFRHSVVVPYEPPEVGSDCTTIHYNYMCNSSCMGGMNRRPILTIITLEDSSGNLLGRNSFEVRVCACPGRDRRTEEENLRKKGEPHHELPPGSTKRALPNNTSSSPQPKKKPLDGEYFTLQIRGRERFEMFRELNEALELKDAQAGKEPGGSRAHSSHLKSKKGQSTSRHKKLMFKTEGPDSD
# The list shows a part of the results, in another mix than the full data. The source made the active and inactive calls. How the source made its calls: active means hit-call score of the fitted dose curve at least 0.9, where 1 is the maximum; inactive means score below 0.9.
# Target: Cellular tumor antigen p53 (Homo sapiens) (UniProt P04637)
# Assay: ATG_p53_CIS: Attagene CIS-FACTORIAL HepG2 Assay for human p53 Transcription Factor (AID 2282994)
# Conditions: HepG2 p53 cis-element reporter, Attagene mRNA; actives raise or lower the signal
# Procedure: ATG_CIS is a cell-based, multiplexed-readout assay that uses HepG2, a human liver cell line, with measurements taken at 24 hours after chemical dosing in a 24-well plate.ATG_p53_CIS is one of 52 assay component(s) measured or calculated from the ATG_CIS assay. It is designed to make measurements of mRNA induction, a form of inducible reporter, as detected with fluorescence intensity signals by Reverse transcription polymerase chain reaction (RT-PCR) and Capillary electrophoresis technology.Data from the assay component ATG_p53_CIS was analyzed into 1 assay endpoint. This assay endpoint, ATG_p53_CIS, was analyzed with bidirectional fitting relative to DMSO as the negative control and baseline of activity. Using a type of inducible reporter, measures of mRNA for gain or loss-of-signal activity can be used to understand the reporter gene at the transcription factor-level as they relate to the gene TP53. Furthermore, this assay endpoint can be referred to as a primary readout, because this assay has produced multiple assay endpoints where this one serves a reporter gene function. To generalize the intended target to other relatable targets, this assay endpoint is annotated to the dna binding intended target family, where the subfamily is tumor suppressor.
# Human liver HepG2 cells are transiently transfected with multiple reporter transcription units (MRTUs) in 6-well plates using FuGene 6 reagent (Roche; 3 ml FuGene/1 mg DNA). The MRTU constructs are regulated by a cis-regulating element (promoter). […] A major difference between the CIS and TRANS system is that in CIS activities of endogenous TFs are measured, whereas the TRANS assay evaluates changes in activities of exogenous, chimeric NR-Gal4 proteins. […] At the end of 24 hour incubation, total RNA was isolated using TriZol reagent (Invitrogen). The isolated RNA is then reverse-transcribed using oligo(dT) primer and Mo-MLV reverse transcriptase (Invitrogen) with DNAse I (Ambion) treatment for 30 min. The one-tenth of the produced cDNA was amplified by PCR using Taq DNA polymerase (Invitrogen) and two reporter sequence-specific primers. The PCR products were fluorescently labeled by primer extension with 6-arboxyfluorescein (6-FAM) 5'-labeled reporter sequence-specific primer (2 min at 95 C, 20 s at 68 C and 10 min at 72 C) and these products were digested with 5U of HpaI (New England Biolabs) for 2h at 37 C. The fragments were purified using Qiaquick PCR columns (Qiagen), analyzed on an ABI 3130xL genetic analyzer (Applied Biosystems) with peak positions identified by using a set of X-rhodamine (ROX)-labeled MapMarker1000 molecular weight standards (BioVentures). The raw capillary electrophoresis data was processed using Attagraph software (Attagene).
row,Compound,outcome
1,COP(C)(=O)OC,inactive
2,CC(C)N(CCO)C(C)C,inactive
3,CN(C)CCCl,inactive
4,N#CBr,inactive
5,O=[N+]([O-])c1cccc([N+](=O)[O-])c1,inactive
6,COc1ccc([N+](=O)[O-])cc1[N+](=O)[O-],inactive
7,Cc1ccc([N+](=O)[O-])cc1[N+](=O)[O-],inactive
8,Cc1cccc([N+](=O)[O-])c1[N+](=O)[O-],inactive
9,CC(C)OP(C)(=O)OC(C)C,inactive
10,O=[N+]([O-])OCC(CO[N+](=O)[O-])(CO[N+](=O)[O-])CO[N+](=O)[O-],inactive
